Tests used:
Conditions in all cases: 10 uM
[1] = target: High affinity nerve growth factor receptor (Homo sapiens, UniProt P04629)
[2] = target: BDNF/NT-3 growth factors receptor (Homo sapiens, UniProt Q16620)
[3] = target: NT-3 growth factor receptor (Homo sapiens, UniProt Q16288)

Sequences of proteins named here, by UniProt entry; tags and fusion partners are left off. A change or cut given only in a name is not applied to a line headed by its entry.
UniProt P04629: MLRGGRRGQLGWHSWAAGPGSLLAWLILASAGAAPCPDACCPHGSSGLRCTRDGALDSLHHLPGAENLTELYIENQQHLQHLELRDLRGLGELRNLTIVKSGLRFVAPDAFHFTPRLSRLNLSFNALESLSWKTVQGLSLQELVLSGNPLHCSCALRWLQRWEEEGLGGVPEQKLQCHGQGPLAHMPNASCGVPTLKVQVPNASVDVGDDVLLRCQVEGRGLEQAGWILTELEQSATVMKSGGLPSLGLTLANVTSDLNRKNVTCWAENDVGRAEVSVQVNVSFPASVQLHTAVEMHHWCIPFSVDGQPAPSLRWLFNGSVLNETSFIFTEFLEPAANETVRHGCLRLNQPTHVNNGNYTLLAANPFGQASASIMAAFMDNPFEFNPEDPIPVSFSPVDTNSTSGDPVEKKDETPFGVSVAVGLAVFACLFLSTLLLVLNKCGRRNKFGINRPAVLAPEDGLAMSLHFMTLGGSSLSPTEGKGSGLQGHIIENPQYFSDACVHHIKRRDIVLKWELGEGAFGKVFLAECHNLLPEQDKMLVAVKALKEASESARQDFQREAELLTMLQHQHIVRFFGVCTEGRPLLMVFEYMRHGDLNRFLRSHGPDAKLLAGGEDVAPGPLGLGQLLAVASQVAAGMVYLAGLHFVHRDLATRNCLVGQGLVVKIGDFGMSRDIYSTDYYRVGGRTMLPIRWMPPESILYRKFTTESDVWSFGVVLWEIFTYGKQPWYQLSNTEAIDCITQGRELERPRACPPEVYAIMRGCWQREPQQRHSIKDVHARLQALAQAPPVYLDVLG
UniProt Q16620, whole entry, looked up: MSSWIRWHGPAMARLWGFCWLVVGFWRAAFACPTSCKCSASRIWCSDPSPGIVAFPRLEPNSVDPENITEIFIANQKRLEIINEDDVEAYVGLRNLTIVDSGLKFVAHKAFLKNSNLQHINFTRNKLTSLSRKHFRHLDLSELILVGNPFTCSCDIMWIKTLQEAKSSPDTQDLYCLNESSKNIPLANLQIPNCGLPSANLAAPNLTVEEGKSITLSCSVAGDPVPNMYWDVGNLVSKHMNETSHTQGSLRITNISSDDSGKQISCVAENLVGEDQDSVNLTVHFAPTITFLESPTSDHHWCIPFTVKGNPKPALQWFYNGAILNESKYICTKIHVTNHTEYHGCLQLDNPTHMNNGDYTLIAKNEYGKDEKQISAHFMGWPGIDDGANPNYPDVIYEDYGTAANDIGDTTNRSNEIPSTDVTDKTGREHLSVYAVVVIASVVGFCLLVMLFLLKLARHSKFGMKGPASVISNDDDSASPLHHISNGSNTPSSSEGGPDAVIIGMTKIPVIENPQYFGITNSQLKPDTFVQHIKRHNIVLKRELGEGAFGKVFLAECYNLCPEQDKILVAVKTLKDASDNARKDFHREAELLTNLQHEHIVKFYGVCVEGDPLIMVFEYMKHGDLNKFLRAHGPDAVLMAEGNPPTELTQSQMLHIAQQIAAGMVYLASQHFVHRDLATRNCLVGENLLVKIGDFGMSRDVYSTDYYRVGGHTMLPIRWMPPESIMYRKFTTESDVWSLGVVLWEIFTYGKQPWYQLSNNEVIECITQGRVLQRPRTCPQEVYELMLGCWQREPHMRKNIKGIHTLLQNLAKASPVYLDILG
UniProt Q16288, whole entry, looked up: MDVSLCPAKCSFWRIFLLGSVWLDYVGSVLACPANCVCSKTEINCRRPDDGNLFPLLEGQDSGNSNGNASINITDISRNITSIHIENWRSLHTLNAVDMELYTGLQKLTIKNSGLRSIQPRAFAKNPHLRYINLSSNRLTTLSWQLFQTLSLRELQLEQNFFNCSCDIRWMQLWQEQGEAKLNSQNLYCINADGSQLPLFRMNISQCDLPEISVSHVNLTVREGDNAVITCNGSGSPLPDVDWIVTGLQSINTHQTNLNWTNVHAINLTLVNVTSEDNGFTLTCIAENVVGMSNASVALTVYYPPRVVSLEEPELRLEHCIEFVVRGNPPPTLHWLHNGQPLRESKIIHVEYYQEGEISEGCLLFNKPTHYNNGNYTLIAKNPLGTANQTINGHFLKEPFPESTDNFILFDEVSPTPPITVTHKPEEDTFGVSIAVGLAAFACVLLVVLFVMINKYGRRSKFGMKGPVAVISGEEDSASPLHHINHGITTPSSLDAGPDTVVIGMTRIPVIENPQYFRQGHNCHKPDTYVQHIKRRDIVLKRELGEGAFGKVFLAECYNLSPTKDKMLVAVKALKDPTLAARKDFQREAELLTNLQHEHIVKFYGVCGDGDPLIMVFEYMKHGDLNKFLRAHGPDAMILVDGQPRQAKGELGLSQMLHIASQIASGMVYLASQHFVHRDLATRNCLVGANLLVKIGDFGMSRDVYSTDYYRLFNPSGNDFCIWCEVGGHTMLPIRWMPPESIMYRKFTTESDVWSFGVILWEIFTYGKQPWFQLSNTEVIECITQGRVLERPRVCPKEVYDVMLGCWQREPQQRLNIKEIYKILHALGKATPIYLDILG

Measured: inhibition

Cc1cn(-c2cc(C(=O)Nc3cccc(Nc4ccc5c(c4)NC(=O)/C5=C\c4ccc[nH]4)c3)cc(C(F)(F)F)c2)cn1
> 50%: [1] | [2] | [3]

— ChEMBL document CHEMBL4346723, “Targeting tropomyosin receptor kinase for cancer therapy” (Eur J Med Chem, 2019)
